Laboratory results taken from patent US20250171499A1, “PHARMACEUTICAL FORMULATIONS AND METHODS FOR THE TREATMENT OF METABOLIC AND LIVER DISORDERS” (Viking Therapeutics, Inc., priority 2022, published 2025).

Sequences of proteins named here, by UniProt entry; tags and fusion partners are left off. Residues count along the entry.
UniProt P43220, 24-463, species assumed: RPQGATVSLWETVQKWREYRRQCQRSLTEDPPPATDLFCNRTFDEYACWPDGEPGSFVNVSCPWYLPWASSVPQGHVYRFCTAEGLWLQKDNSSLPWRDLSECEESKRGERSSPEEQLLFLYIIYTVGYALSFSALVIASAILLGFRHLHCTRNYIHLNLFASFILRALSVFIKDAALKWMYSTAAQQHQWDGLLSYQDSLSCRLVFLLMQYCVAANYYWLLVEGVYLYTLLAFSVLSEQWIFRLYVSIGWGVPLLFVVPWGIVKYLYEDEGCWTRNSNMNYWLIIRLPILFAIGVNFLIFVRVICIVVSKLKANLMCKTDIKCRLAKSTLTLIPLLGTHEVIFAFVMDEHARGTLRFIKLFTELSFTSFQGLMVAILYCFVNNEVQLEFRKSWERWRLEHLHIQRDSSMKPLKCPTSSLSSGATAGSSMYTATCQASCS

How the values were obtained:
GIP receptor = biological target: T1, GIP receptor (Homo sapiens, UniProt P48546); test: Binding assay in the presence or absence of 2% human serum albumin, GIP receptor; settings: IC50 with 2% HSA to IC50 with 0% HSA
T1 sequence (P48546 22-466): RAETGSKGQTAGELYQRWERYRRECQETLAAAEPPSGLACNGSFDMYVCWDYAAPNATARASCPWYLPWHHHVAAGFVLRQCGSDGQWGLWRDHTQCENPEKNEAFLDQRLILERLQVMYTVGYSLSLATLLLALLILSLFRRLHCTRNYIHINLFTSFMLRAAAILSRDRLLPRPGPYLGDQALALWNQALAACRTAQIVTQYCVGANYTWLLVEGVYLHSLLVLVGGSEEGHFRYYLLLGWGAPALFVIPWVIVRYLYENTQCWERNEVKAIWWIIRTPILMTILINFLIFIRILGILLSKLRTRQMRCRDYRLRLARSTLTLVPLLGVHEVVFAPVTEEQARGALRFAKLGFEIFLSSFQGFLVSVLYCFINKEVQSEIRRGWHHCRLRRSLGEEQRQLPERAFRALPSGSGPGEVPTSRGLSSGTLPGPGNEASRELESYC

GLP-1 receptor = GLP-1 receptor (Homo sapiens, UniProt P43220); settings: IC50 with 2% HSA to IC50 with 0% HSA

Substance: tirzepatide [reference compound]
- GIP receptor Ratio of HSA:No HSA (GIP receptor): 5.82
- GLP-1 receptor Ratio of HSA:No HSA (GLP-1 receptor): 12.8
